Test results from paper PMC10785772 (Science translational medicine, 2023).

The chains behind the UniProt entries cited, without tags or fusion partners. Where a name states a change or a piece, a line headed by the entry shows the natural chain unless it says otherwise.
UniProt Q12809: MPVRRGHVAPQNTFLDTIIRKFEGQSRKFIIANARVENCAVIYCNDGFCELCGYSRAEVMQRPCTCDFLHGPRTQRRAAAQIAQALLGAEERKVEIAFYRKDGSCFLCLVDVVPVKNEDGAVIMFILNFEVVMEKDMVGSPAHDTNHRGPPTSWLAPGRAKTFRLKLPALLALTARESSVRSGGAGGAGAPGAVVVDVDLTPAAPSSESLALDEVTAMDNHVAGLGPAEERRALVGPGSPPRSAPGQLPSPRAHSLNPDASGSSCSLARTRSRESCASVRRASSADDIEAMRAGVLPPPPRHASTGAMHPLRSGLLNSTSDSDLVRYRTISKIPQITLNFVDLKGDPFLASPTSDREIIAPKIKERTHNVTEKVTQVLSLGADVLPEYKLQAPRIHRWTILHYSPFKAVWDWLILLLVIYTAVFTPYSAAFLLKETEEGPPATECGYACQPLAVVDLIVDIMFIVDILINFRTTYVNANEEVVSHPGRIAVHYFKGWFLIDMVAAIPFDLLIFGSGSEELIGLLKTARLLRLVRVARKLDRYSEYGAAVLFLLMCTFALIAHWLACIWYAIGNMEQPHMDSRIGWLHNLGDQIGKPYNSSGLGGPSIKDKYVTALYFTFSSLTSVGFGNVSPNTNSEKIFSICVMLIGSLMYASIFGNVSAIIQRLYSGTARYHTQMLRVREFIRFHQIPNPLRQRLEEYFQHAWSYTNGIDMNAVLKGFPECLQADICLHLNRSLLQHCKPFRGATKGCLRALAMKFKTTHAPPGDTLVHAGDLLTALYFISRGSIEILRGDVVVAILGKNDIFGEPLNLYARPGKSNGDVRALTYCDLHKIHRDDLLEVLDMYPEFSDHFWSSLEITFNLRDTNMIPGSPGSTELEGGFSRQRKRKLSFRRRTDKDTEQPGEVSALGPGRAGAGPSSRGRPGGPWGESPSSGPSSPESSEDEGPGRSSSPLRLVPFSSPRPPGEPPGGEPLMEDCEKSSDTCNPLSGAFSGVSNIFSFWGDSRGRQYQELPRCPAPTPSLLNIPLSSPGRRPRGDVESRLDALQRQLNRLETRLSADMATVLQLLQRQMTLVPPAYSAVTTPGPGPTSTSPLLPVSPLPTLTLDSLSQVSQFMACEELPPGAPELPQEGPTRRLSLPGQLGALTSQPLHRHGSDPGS

Target: hERG ion channel (Homo sapiens, UniProt Q12809)
Details: 0.05 μM

With `COc1cc(N)c(Cl)cc1C(=O)NC1CCN(CCCOc2ccc(F)cc2)CC1OC` (stereo not shown) [cisapride] the hERG channel inhibition was 69 ± 4%.
